Laboratory results reported in article PMC9477737, “Structural insights into auxin recognition and efflux by Arabidopsis PIN1” (Nature, 2022).

Protein sequences, listed by entry. Tags and fused reporters are not part of them.
UniProt Q9C6B8, whole entry V51A: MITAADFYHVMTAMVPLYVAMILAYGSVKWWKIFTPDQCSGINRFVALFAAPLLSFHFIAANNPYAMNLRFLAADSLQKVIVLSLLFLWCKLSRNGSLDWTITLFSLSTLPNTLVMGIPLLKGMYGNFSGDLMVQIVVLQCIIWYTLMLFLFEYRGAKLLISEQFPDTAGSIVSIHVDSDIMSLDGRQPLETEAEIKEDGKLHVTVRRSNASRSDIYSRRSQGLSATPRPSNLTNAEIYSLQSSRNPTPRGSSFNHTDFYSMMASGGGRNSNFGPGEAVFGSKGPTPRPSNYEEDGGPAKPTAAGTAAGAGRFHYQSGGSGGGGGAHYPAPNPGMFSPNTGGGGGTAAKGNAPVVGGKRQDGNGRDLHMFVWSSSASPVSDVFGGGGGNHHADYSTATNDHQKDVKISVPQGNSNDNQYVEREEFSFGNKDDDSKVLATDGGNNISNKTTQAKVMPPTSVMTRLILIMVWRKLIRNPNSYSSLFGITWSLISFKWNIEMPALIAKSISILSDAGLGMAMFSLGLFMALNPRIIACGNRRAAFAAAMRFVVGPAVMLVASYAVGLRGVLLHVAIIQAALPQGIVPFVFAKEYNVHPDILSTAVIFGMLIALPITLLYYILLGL

Assays:
PIN1 [1] = target: PIN1 (Arabidopsis thaliana, UniProt Q9C6B8, V51A); assay: biochemical
PIN1 [2] = target: T1, PIN1 (Arabidopsis thaliana, UniProt Q9C6B8); assay: biochemical
PIN1 [3] = target: T1, PIN1; details: D6PK co-expressed, pH 5.5, 37 °C

Compound	Kd (PIN1 [1]) [µM]	Kd (PIN1 [2]) [µM]	relative [3H]IAA retention with 10 μM NPA (PIN1 [3])
O=C(O)Cc1c[nH]c2ccccc12 [IAA]	1390 ± 160	83	–
O=C(O)c1ccccc1C(=O)Nc1cccc2ccccc12 [NPA]	–	~0.15	This PIN1-mediated auxin efflux is inhibited by NPA (Fig. 1b,d)
